## Yeast mating assay B: variants of the scFv Ab-14

Binding partner: SARS-CoV-2 spike HR2 peptide, sequence PDVDLGDISGINAS.

Parent scFv Ab-14: VH joined to VL by the linker GGGGSGGGGSGGGGS. Changes lie in the heavy chain CDRs alone.
VH: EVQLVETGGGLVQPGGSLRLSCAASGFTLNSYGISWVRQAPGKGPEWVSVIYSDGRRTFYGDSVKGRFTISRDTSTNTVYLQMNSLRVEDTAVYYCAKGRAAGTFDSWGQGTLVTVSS
VL: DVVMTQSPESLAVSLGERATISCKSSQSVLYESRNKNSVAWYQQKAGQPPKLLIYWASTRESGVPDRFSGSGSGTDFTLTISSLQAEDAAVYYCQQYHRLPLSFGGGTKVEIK

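Phage display of a naive human antibody library on the peptide gave the parent. This is the validation round: designs drawn from the data on random variants, tested in the same kind of assay. Group labels follow the data file (Ctrl: baseline library sampled from a position-specific scoring matrix, with some repeated check sequences; Rand: our label for a block that the file lists under HC and that is probably the random mutants of the ten best first-round binders; En: ensemble of fine-tuned language models; GP: Gaussian process model; GPLM: also part of the Gaussian process libraries; HC: hill climbing; Gen: genetic algorithm; Gibbs: Gibbs sampling; a sequence that several methods proposed may carry one label only). The assay is AlphaSeq: two haploid yeast populations carry antibody and antigen on their surface. Pairs that bind mate more often; barcode pairs of the diploids are counted by sequencing. A regression on co-assayed BCL2-family reference pairs converts the normalised counts of each replicate to an apparent Kd. Each pool was mated in six replicate cultures.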

Each variant is given by its three heavy chain CDRs, as the data file delimits them; those of the parent are GFTLNSYGIS, VIYSDGRRTFYGDSVK, GRAAGTFDS.
Kd is apparent (estimated from mating counts) and averaged on the log scale over replicates with a signal. Smaller is tighter.
Where no diploid with the target was found in any replicate, the entry reads "nd": below detection, most likely a poor binder, though not proof of it.
The authors averaged sequences with at least three values out of six and counted those with two or fewer as poor binders.
Nonspecific signal, from three strains lacking the peptide, appeared in 1% of pairings of all heavy chain designs, centred on 120 nM (5% of these signals below 7.0 nM); values are not corrected for it. The control count says in how many pairings with the empty strains this scFv gave a signal.
Values of this round are not directly comparable with the first-round values of the same sequences.

Kd (apparent)	replicates with signal	control signals	CDR-H1	CDR-H2	CDR-H3	group
nd	0/6	0/18	GFTLNEYGIS	VIYSDGRRTFYIDSVK	GRAAGTFFS	Ctrl
1.8 nM	6/6	0/18	GFNLNSYGIS	VIYSDGRRTFYGDDVK	GSEAGTFDS	GP_Gibbs
450 pM	6/6	0/18	GFDLNEYGIS	VIYADGRRTAYADDVK	GNNAGTFDI	En_Gen
nd	0/6	0/18	KFNLNSYGIS	VIYSDGRRTFYGDSVK	GRNAGTFDS	GPLM_Gibbs
270 pM	6/6	0/18	GFSLNEYGIS	VIYSDGRRTAYGDSVK	GRQAGTFDS	Ctrl
270 pM	6/6	0/18	GFNLDEYGIS	VIYADGRRTFYADSVK	GEHAGTFDI	En_HC
nd	0/6	0/18	GFDLNSYGIS	VIYSDGRRTFYGDGVK	GKTAGTFDS	GP_Gen
210 nM	2/6	0/18	GFDLREMGIS	VIYADGRRVAYNDKVK	GELTGTFDQ	En_Gibbs
140 pM	3/6	0/18	GFDLDEYGIS	VIYADGMRTYYADSVK	GTNAGTFDV	En_Gen
94 pM	6/6	0/18	GFDLNEYGIS	VIYADGSRKAYADSVK	GNVAGTFDQ	En_Gen
4.0 nM	6/6	1/18	GFELNMYGIS	VIYSDGRRTFYTDSVK	GQTAGTFDS	GP_Gibbs
nd	0/6	0/18	GFTLNEYGIS	VIYSDGRRTFYQDSVK	GRAAGTFLM	Ctrl
nd	0/6	0/18	GFTLNSYGIS	VIYSDGVRTFYGDSVK	GKAAGYFRS	Ctrl
610 pM	6/6	0/18	GFDLNEYGIS	VIYADGRRTFYIDSVK	GEAAGTFDS	En_HC
1.6 nM	6/6	0/18	GFDLNEYGIS	VIYADGRRTSYVDSVK	GENAGTFDV	En_HC
1.2 nM	4/6	0/18	GFTLNEYGIS	VIYSDGRRTFYGDSVK	GRAAGTFNT	GP_HC
420 pM	6/6	0/18	GFDLNEYGIS	VIYADGLRTVYADSVK	GQNAGTFDQ	En_HC
320 pM	6/6	0/18	GFDLDEYGIS	VIYADGMRTAYADSVK	GQVAGTFDT	En_Gen
280 pM	6/6	0/18	GFDLNEYGIS	VIYADGVRTSYADSVK	GQVAGTFDV	En_Gen
29 nM	6/6	0/18	GFVLNSYGIS	VIYSDGRRTFYADSVK	GNAAGTFDS	GPLM_Gen
nd	0/6	0/18	GFTLNDYGIS	VIYSDGRRTFYADSVK	GRAAGTFKS	GPLM_HC
1.1 nM	6/6	0/18	GFDINEYGIS	VIYADGRRTAYADSVK	GNQGGTFDL	En_HC
nd	0/6	1/18	GNTLNSYGIS	VIYSDGRRTFYGDSVK	GRAAGYFDS	Ctrl
82 nM	3/6	0/18	GFTLNSYGIS	VIYSDGVRTFYGDSVK	GRAAGTFDN	Ctrl
72 pM	5/6	0/18	GFDLNEYGIS	VIYADGMRTAYTDSVK	GNVAGTFDI	En_Gen
13 nM	5/6	0/18	GFELNSYGIS	VIYSDGQRTFYKDSVK	GRTAGTFDS	GP_Gen
nd	0/6	0/18	GMDLGEYGIS	VIYADGVRQAYVDKVK	GFNGVDGIV	En_Gibbs
840 pM	6/6	0/18	GFNLDEYGIS	VIYADGRRTAYADSVK	GEVAGTFDL	En_Gen
510 pM	6/6	0/18	GFDLNEYGIS	VIYADGRRTFYADSVK	GEIAGTFDL	En_HC
nd	0/6	0/18	GFSLDEYGIS	VIYADGARAAYTNDFK	GNIGDLFGK	En_Gibbs
7.8 nM	6/6	1/18	GKTLNSYGIS	VIYSDGKRTFYADDVK	GRVAGTFDS	GP_Gibbs
2.8 nM	6/6	1/18	GFSLNEYGIS	VIYSDGRRTFYGDQVK	GRAAGTFDS	GP_Gen
nd	0/6	2/18	GFDLGEYGVS	VIYADGKRTFYADHVK	GVNLGFFDT	En_Gibbs
2.0 nM	6/6	1/18	GFTLNSYGIS	VIYSDGRRTFYGDSVK	GDAAGTFDL	Ctrl
3.3 nM	6/6	1/18	EFDLNSYGIS	VIYSDGRRTFYGDSVK	GRTAGTFDS	GP_Gen
210 nM	1/6	0/18	GFDVDEYGIS	VIYADGKRSMYTDKVK	GVIADGMMV	En_Gibbs
6.0 nM	5/6	0/18	GFSLNSYGIS	VIYSDGRRTFYVDSVK	GKVAGTFDS	GP_Gen
28 nM	5/6	0/18	EFTLESYGIS	VIYADGRRTFYGDSVK	GRAAGTFDS	GP_HC
260 pM	6/6	0/18	GFDLNEYGIS	VIYADGMRTAYIDSVK	GETAGTFDV	En_Gen
9.9 nM	5/6	0/18	GFSLNDYGIS	VIYSDGRRTFYGDSVK	GRTAGTFDF	GPLM_Gen
740 pM	6/6	0/18	GFTLNEYGIS	VIYSDGRRTFYGDSVK	GRTAGTFDS	GPLM_Gen
3.7 nM	6/6	1/18	GFHLNSYGIS	VIYSDGRRTFYDDSVK	GQTAGTFDS	GPLM_Gen
160 pM	6/6	0/18	GFDLDEYGIS	VIYADGRRTYYADSVK	GQNAGTFDQ	En_HC
86 nM	5/6	0/18	GFTLNEVGIS	VIYSDGERTFYTDSVK	GRFAGTFDS	Rand
17 nM	3/6	0/18	HFTLESYGIS	VIYSDGRRTFYGDSVK	GRAAGTFDN	Ctrl
nd	0/6	1/18	GFTLNSYGRS	VIYSDGRRTFYGDSVK	GRADGTFDS	Ctrl
1.7 nM	6/6	0/18	GFTLNSYGIS	VIYSDGRRTFYGDDVK	GNEAGTFDT	GP_Gen
nd	0/6	0/18	GFTLNSYGIS	VIYADGRRTFYGDSVK	GRAAGTKDS	GP_HC
2.3 nM	6/6	0/18	GFTLNEYGIS	VIYSDGKRTQYIDSVK	GRAAGTFDS	GP_HC
1.6 µM	2/6	1/18	GFDVDEYGIS	VIYADGKRSMYTDKVK	GVDADTMMV	En_Gibbs
480 pM	6/6	0/18	GFGLNSYGIS	VIYSDGRRTFYADSVK	GSEAGTFDS	GP_Gibbs
nd	0/6	0/18	GFTLMMYGIS	VIYSDGRRTFYGDSVK	GRAAGTFDW	Ctrl
2.3 nM	6/6	0/18	GFTLESYGIS	VIYSDGRRTFYGDSVK	GHVAGTFDS	GP_Gibbs
nd	0/6	0/18	GFTLNSYGRS	VIYSDGRRTMYGDSVK	GRAMGTFDT	Ctrl
1.3 nM	6/6	1/18	GFSLNDYGIS	VIYSDGRRTAYGDSVK	GRAAGTFDS	GPLM_HC
27 nM	6/6	1/18	GFWLNSYGIS	VIYSDGRRTFYADSVK	GRQAGTFDS	GPLM_Gibbs
280 pM	6/6	0/18	GFDLDEYGIS	VIYADGKRTAYTDSVK	GEVAGTFDL	En_Gen
49 nM	5/6	0/18	KFELNEYGIS	VIYSDGRRTFYGDSVK	GRTAGTFDS	GP_Gen
34 nM	5/6	0/18	GFDLNEYGIS	VIYADGMRTSYADSVK	GQVAGTFDV	En_Gen
nd	0/6	0/18	GFDLNEYGIS	VIYADGVRTFYSDSVK	GENAGFFDV	En_HC
150 pM	6/6	0/18	GFDLNEYGIS	VIYADGKRTAYADDVK	GNVAGTFDV	En_Gen
2.4 nM	4/6	0/18	GFDLNEYGIS	VIYADGSRTVYADSVK	GENAGTFDM	En_Gen
11 nM	6/6	0/18	GFTLNSYGIS	VMYSDGRRTFYGDSVR	GREAGTFDS	Ctrl
65 nM	5/6	0/18	GFNLNDYGIS	VIYSDGRRTFYGDSVV	GQAAGTFDS	Ctrl
360 nM	3/6	0/18	GFTLNSYGIS	VIYSDGRRTFYQDSVK	GRAGGTFDS	Rand
140 pM	6/6	0/18	GFDLNEYGIS	VIYADGQRTFYSDSVK	GEIAGTFDS	En_HC
nd	0/6	0/18	GFDVEEYGIS	VIYADGRRSSYSQSVK	GEYSGTIYV	En_Gibbs
nd	0/6	0/18	KFTLNSYGIS	VIYSDGWRTFYGDSVK	RRAAGTFDS	Ctrl
28 nM	5/6	0/18	GFTLESYGIS	VIYSDGRRTFYGDSVK	GRTAGTFDK	GP_Gen
300 pM	6/6	1/18	GFNLNEYGIS	VIYADGMRTAYTDSVK	GETAGTFDV	En_HC

Top 6 of the variants detected in all replicates, tightest first:

{"CDR-H1": "GFDLNEYGIS", "CDR-H2": "VIYADGSRKAYADSVK", "CDR-H3": "GNVAGTFDQ", "group": "En_Gen", "Kd (apparent)": "94 pM", "replicates with signal": "6/6", "control signals": "0/18"}
{"CDR-H1": "GFDLNEYGIS", "CDR-H2": "VIYADGQRTFYSDSVK", "CDR-H3": "GEIAGTFDS", "group": "En_HC", "Kd (apparent)": "140 pM", "replicates with signal": "6/6", "control signals": "0/18"}
{"CDR-H1": "GFDLNEYGIS", "CDR-H2": "VIYADGKRTAYADDVK", "CDR-H3": "GNVAGTFDV", "group": "En_Gen", "Kd (apparent)": "150 pM", "replicates with signal": "6/6", "control signals": "0/18"}
{"CDR-H1": "GFDLDEYGIS", "CDR-H2": "VIYADGRRTYYADSVK", "CDR-H3": "GQNAGTFDQ", "group": "En_HC", "Kd (apparent)": "160 pM", "replicates with signal": "6/6", "control signals": "0/18"}
{"CDR-H1": "GFDLNEYGIS", "CDR-H2": "VIYADGMRTAYIDSVK", "CDR-H3": "GETAGTFDV", "group": "En_Gen", "Kd (apparent)": "260 pM", "replicates with signal": "6/6", "control signals": "0/18"}
{"CDR-H1": "GFNLDEYGIS", "CDR-H2": "VIYADGRRTFYADSVK", "CDR-H3": "GEHAGTFDI", "group": "En_HC", "Kd (apparent)": "270 pM", "replicates with signal": "6/6", "control signals": "0/18"}

Reference: Li et al. 2023, doi:10.1038/s41467-023-39022-2. File: FLAb, binding data.